Test results: patent US20230181700A1 (priority 2021, published 2023)

System: synthetic MCA-based peptide substrate (Biovision ACE2 Activity Assay Kit, Cat. No. K897-100)

**Q.** With “ACE2 recombinant control (Sigma, Cat. No. SAE0064)” as the substance, how does the ACE2 enzymatic activity read?
**A.** 1,860 pmol/min/µg
